This is a selection; strong and weak results do not stand in their true shares. Records with an inconclusive call do not appear. For part of these data: Results with a measured potency or affinity are listed apart. Calls of active or inactive are those of the source. Unless noted, calls follow the shape of the dose curve; as a rule, active = well fitted curve in the direction sought with a large enough effect; inconclusive = small, poorly fitted or top-dose-only effect, or another doubt; inactive = no such curve, though single readings can be large; an effect the other way counts as inactive or inconclusive.
Legend:
[1] = qHTS for Inhibitors of ATXN expression: Validation (AID 588378); conditions: cell-based ATXN2 expression reporter assay, luminescence; at 57.1 µM (top of the series); also: % is scaled to controls: 0 for no effect and ±100 for the full control effect; nearly all actives have a fitted effect of over 75% in size
Summary of the method: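 Cells: HEK293-ATXN2-FFLuc, phenol-red free DMEM, 2 h attachment. Compound pin-transfer, 24 h, 37 degrees C, 5% CO2. CellTiter-Fluor 30 min, Ex405/Em525; Bright-Glo 5 min, luminescence 2 s exposure.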

Protein sequences, listed by entry. Tags and fused reporters are not part of them. Lines headed by an entry give the natural chain unless they say otherwise; changes in a name come on top.
UniProt Q12809: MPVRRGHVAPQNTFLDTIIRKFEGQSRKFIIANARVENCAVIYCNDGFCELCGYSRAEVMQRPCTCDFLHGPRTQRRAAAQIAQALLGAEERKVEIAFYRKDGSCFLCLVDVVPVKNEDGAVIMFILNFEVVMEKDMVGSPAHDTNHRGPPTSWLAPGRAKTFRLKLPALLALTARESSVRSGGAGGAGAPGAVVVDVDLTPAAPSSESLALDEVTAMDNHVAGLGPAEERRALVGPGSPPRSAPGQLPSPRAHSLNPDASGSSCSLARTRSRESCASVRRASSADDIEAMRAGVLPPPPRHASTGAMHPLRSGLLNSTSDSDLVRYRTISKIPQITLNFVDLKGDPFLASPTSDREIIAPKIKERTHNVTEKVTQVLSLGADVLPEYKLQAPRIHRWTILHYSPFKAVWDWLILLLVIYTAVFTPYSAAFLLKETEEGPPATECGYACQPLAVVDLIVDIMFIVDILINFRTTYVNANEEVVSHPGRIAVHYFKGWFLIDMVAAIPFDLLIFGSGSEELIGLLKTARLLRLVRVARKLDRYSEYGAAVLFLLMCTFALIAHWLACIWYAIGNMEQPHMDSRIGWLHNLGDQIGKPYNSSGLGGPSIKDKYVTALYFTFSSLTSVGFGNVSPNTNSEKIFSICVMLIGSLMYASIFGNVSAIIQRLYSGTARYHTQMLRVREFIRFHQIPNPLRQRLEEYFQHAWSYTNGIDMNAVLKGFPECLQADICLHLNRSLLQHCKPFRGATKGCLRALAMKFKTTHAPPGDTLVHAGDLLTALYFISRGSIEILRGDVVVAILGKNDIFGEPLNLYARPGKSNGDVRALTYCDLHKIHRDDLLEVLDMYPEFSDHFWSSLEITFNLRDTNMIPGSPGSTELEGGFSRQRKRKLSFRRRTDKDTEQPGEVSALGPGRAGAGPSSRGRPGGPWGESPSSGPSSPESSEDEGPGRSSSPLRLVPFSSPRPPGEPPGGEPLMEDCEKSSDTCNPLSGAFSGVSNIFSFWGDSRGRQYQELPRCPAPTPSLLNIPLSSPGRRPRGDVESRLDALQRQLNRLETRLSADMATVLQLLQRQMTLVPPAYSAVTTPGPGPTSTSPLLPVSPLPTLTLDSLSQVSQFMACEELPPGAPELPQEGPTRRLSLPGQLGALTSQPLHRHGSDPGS
UniProt O94925: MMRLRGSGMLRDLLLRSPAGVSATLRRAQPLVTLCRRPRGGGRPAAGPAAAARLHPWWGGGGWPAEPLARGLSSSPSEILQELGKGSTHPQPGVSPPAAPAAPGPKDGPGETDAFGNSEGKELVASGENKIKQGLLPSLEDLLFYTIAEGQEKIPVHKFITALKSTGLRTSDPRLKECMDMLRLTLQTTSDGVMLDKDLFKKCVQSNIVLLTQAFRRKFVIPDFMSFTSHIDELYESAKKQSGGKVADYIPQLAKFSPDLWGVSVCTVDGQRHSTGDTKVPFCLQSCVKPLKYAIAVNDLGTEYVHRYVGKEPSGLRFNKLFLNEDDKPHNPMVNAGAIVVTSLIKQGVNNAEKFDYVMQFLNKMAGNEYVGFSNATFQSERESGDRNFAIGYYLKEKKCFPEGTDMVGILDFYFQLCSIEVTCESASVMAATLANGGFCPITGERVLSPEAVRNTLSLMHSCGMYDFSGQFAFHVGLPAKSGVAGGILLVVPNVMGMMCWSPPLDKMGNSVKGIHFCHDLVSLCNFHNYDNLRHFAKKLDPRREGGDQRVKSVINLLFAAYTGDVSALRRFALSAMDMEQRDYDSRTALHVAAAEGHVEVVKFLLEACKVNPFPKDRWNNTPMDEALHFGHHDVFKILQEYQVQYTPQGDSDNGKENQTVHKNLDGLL
UniProt P43220, whole entry, looked up: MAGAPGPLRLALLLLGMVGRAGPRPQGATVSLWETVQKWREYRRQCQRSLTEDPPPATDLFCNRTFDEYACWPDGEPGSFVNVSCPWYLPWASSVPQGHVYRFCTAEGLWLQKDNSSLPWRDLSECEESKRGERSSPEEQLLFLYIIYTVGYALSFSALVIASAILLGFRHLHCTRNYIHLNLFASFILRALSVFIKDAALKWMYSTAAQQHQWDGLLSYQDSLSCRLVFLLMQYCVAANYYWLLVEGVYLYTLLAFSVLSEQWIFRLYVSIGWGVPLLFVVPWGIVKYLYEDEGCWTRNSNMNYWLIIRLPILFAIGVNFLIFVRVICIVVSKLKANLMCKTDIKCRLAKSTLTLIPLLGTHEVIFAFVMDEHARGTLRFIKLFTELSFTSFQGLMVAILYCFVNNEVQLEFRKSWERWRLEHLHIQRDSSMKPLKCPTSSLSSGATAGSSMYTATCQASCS
UniProt P15289: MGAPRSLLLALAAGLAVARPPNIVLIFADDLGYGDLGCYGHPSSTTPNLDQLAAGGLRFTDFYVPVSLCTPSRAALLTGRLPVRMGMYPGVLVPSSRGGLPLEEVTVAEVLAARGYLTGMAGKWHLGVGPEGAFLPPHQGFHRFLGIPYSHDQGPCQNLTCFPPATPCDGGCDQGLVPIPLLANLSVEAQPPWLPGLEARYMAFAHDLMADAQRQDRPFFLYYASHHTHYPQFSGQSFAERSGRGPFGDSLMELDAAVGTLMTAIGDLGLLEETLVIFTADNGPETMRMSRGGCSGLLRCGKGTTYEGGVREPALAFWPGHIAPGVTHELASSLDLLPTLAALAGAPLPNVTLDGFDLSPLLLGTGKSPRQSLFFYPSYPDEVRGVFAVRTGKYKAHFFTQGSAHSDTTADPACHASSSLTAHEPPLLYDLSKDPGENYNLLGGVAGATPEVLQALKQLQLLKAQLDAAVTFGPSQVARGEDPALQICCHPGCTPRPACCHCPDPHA
UniProt P35557, whole entry, looked up: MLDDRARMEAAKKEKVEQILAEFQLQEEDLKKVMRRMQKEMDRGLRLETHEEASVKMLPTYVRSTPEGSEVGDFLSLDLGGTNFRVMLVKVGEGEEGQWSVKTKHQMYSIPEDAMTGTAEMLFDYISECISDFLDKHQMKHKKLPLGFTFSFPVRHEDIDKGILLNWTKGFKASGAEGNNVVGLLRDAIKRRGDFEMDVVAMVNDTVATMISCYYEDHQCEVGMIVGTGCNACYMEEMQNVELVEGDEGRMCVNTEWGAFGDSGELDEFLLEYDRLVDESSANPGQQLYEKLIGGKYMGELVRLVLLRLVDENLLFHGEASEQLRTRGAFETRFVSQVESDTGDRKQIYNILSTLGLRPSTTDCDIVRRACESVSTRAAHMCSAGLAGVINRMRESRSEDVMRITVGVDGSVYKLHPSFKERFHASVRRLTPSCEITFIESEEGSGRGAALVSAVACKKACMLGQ
UniProt Q14397: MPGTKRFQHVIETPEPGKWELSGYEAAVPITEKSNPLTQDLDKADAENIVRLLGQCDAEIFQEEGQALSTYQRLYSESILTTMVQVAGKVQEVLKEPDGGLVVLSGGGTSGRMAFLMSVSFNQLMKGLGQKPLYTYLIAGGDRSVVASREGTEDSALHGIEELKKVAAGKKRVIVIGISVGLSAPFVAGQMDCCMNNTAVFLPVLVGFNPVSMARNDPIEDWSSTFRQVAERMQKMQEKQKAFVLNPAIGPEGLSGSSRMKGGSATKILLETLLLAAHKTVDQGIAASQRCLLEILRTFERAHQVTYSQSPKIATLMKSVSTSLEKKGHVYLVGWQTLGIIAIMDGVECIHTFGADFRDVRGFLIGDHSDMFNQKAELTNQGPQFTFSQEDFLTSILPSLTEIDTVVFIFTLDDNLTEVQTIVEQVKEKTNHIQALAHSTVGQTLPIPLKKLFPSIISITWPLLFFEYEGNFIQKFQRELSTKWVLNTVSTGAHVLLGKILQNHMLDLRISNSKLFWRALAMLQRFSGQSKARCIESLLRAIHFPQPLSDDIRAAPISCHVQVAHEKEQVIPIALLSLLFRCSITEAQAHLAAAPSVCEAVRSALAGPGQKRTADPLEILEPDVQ
UniProt P16066: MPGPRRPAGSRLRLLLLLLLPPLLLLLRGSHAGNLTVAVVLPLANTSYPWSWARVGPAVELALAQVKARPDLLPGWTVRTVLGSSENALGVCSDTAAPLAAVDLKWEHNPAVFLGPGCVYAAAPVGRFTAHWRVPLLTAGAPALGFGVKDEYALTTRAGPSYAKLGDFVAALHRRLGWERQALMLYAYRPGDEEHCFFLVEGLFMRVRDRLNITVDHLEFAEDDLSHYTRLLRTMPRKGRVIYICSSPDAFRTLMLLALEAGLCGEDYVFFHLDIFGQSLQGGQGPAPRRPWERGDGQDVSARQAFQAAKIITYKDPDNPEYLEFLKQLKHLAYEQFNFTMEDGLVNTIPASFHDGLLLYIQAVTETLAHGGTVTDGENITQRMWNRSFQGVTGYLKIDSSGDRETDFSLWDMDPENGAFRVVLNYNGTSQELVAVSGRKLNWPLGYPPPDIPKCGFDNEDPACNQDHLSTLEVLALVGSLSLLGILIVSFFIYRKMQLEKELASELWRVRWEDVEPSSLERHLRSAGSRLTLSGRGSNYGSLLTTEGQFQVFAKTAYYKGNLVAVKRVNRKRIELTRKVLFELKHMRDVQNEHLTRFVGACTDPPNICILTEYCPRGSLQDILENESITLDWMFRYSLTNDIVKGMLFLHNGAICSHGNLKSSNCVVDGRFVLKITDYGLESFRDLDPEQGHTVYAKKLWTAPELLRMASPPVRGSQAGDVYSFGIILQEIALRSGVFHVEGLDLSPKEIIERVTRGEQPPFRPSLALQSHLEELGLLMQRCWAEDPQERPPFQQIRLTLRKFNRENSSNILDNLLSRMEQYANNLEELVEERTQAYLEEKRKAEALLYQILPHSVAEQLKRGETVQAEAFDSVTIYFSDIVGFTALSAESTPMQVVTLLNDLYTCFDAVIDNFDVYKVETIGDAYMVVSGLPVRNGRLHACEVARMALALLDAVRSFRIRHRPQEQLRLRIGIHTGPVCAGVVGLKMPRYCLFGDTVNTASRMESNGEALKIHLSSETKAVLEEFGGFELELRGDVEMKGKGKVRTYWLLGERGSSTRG

[2] = biological target: Voltage-gated inwardly rectifying potassium channel KCNH2 (Homo sapiens) (UniProt Q12809); assay: qHTS Assay for Small Molecule Inhibitors of the Human hERG Channel Activity (AID 588834); conditions: U2OS BacMam hERG, FluxOR thallium flux fluorescence; at 46.1 µM (top of the series) unless noted;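 also: U2OS cells transduced with hERG by BacMam; top concentration of the series differs between compounds; % is scaled to controls: 0 for no effect and ±100 for the full control effect; lower thallium flux fluorescence means stronger hERG block; nearly all actives have a fitted effect of over 50% in size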
[3] = biological target: Glutaminase kidney isoform, mitochondrial (Homo sapiens) (UniProt O94925); assay: qHTS for Inhibitors of Glutaminase (GLS): LOPAC Validation (AID 624146); also: potency is read from the fitted curve at half-maximal effect; nearly all actives have a fitted effect of over 60% in size
Summary of the method: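 Human kidney-isoform GLS in 45 mM KH2PO4 pH 8.2, 0.02% Tween-20, with compound, started with 1mM L-Glutamine (added stock). Glutamate oxidase/HRP/Amplex red coupled fluorescence read at start and after 30 min at RT.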

[4] = biological target: Glucagon-like peptide 1 receptor (Homo sapiens) (UniProt P43220); assay: qHTS of GLP-1 Receptor Agonists: LOPAC Validation (AID 624148); conditions: GLP-1R agonist cell assay; at 46.1 µM (top of the series);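 also: 0% is about no effect; higher luminescence signal means agonism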
Summary of the method: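 HEK293 cells stably co-expressing GLP-1R and a cAMP-responsive luciferase reporter, plated 12 hours before compound, then incubated 4-6 hr at 37 deg C. Luminescence read 12 min after detection reagent.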

[5] = qHTS of Nrf2 Activators: LOPAC Validation (AID 624149); conditions: Nrf2/ARE reporter cell assay; at 46.1 µM (top of the series); also: 0% is about no effect
Summary of the method: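 Luminescence read-out of ARE-luciferase activation: AREc32_Fluc cells treated with compounds for 24 hr at 37 deg C, then lysed with Steady-Glo for 30 min at room temperature before reading.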

[6] = HTS Assay for Allosteric Antagonists of the Human D2 Dopamine Receptor: Hit Validation in HTRF (AID 624455); conditions: D2 receptor cells, HTRF cAMP read-out, antagonist mode; at 46.1 µM (top of the series);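 also: stable D1 dopamine receptor cell line scored for blocking the D1 response; % is scaled to controls: 0 for no effect and ±100 for the full control effect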
Summary of the method: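 First, antagonism was screened by calcium flux in a force-coupled, inducible Hek293 Trex D2 line challenged with EC80 dopamine. Hits then went into an HTRF assay in cells stably expressing D1, testing inhibition of the D1 response.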

[7] = biological target: Arylsulfatase A (Homo sapiens) (UniProt P15289); assay: qHTS screen for enhancers of Arylsulfatase A (ASA1): LOPAC Validation Assay (AID 720538); conditions: ASA enzyme activity, LOPAC qHTS enhancer assay; activity change, positive = activation: at 57.5 µM (top of the series); also: 0% is about no effect
Summary of the method: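 Read-out: fluorescence at Ex=525/Em=598 nm after 1N NaOH final stop. Patient fibroblasts carrying ASA-I179S had 48h compound exposure, then 14h room-temperature pNCS hydrolysis (0.5mM final) in lysis buffer. Signal increase = enhanced activity.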

[8] = qHTS for compounds that reverse cellular toxicity of Amyloid beta (A-beta) peptide in yeast: LOPAC Validation Assay (AID 720559); conditions: yeast expressing A-beta; at 46.1 µM (top of the series);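 also: plate controls were DMSO for no effect and equimolar ferric chloride plus clioquinol rescue for full effect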
Summary of the method: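 OD600 growth readout after 48 hr at 30 C; A-beta-toxic yeast plus pinned compounds in medium. Normalization: DMSO = negative, equimolar FeCl3 + clioquinol = positive.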

[9] = qHTS for Activators of Parkin Expression: LOPAC Validation Assay (NLuc Reporter) (AID 720572;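 also: 0% = DMSO and 100% = positive control compound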); conditions: Parkin promoter NanoLuc reporter cells, luminescence, percent of positive control, DMSO as zero; at 46.1 µM (top of the series)
Summary of the method: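 Neuronal cells with a Parkin promoter-driven FLuc/NLuc coincidence reporter were treated 24 h at 37 C in 7-point dose response (LOPAC). NLuc luminescence read after FLuc; signals normalized to DMSO and positive control (100%).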

[10] = qHTS for Activators of Parkin Expression: LOPAC Validation Assay (FLuc Reporter) (AID 720573;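 also: 0% = DMSO and 100% = positive control compounds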); conditions: Cell line, PRKN promoter firefly luciferase reporter, vehicle wells = 0, positive control = 100%; at 46.1 µM (top of the series)
Summary of the method: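 FLuc luminescence read-out from a neuronal line expressing a Parkin-promoter-driven coincidence reporter. Cells treated 24 h at 37 C, 5% CO2 with compounds at 7 concentrations; signal increase normalized to DMSO and positive control.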

[11] = biological target: T1, Hexokinase-4 (Homo sapiens) + Glucokinase regulatory protein (Homo sapiens) (UniProt P35557+Q14397); assay: qHTS assay for inhibitors of recombinant human GCK-GKRP interaction: Diaphorase-coupled assay (AID 743205); conditions: G6PDH/diaphorase resorufin fluorescence; at 57.5 µM (top of the series)
Summary of the method: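 Resorufin fluorescence (525/590 nm), read each minute over 30 min, reports GCK activity coupled via G6PDH and diaphorase. Reaction: 10 nM GST-GCK, 10 nM FLAG-GKRP, 5 mM glucose, 0.4 mM ATP, 0.15 mM NADP+, 0.1 mM resazurin.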

[12] = biological target: T1, Hexokinase-4 (Homo sapiens) + Glucokinase regulatory protein (Homo sapiens); assay: qHTS assay for inhibitors of recombinant human GCK-GKRP interaction: ADP-Glo assay (AID 743206); conditions: ADP-Glo luminescence, 60 min, 0% = vehicle-only wells with enzyme present; at 76.9 µM (top of the series);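 also: plate controls were DMSO plus enzyme for no effect and no enzyme for full effect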
Summary of the method: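 GST-GCK and FLAG-GKRP (15 nM each in the dispensed mix, with 2 uM S6P) react with 0.4 mM ATP and 5 mM glucose (final) in Hepes pH 7.6 for 60 min at room temperature. ADP is measured by ADP-Glo luminescence.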

[13] = biological target: T1, Hexokinase-4 (Homo sapiens) + Glucokinase regulatory protein (Homo sapiens); assay: qHTS assay for inhibitors of recombinant human GCK-GKRP interaction: HTRF assay (AID 743207); conditions: recombinant GCK-GKRP HTRF binding, 60 min, with sorbitol-6-phosphate; at 57.5 µM (top of the series);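 also: 0% = DMSO with GCK present and -100% = DMSO wells lacking GCK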
Summary of the method: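 HTRF read-out (ex 320 nm; 615/665 nm emission) after 60 min RT equilibration of 5 nM GST-GCK, 5 nM FLAG-GKRP, 2 uM S6P, compound and anti-FLAG/anti-GST detection antibodies; signal normalized between DMSO wells with and without GCK.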

[14] = Natriuretic polypeptide receptor (hNpr1) antagonism - Pilot counterscreen GloSensor control cell line (AID 1347045; calls by dose curve; also: % is scaled to controls: 0 for no effect and ±100 for the full control effect); conditions: GloSensor cAMP control cell line, luminescence counterscreen; at 38.3 µM (top of the series)
Summary of the method: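 Luminescence was read before and 20 min after adding 50 uM SNP, which stimulates soluble guanylyl cyclase. The HEK293 cells expressing the GloSensor cGMP sensor had been preloaded with 2% reagent for 2 h and treated with compound.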

[15] = biological target: Atrial natriuretic peptide receptor 1 (Homo sapiens) (UniProt P16066); assay: Natriuretic polypeptide receptor (hNpr1) antagonism - Pilot screen (AID 1347049; calls by dose curve;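 also: agonist-evoked cGMP luminescence read 20 min after hNppA addition; % is scaled to controls: 0 for no effect and ±100 for the full control effect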); conditions: hNpr1 cells, antagonist mode cGMP read-out; at 57.5 µM (top of the series)
Summary of the method: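 HEK293 cells expressing hNpr1 and GloSensor cGMP luciferase, 1500/well, loaded with 2% GloSensor reagent 2 h, compound 30 min at room temperature; luminescence read before and 20 min after 0.1 nM hNppA stimulation.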

CN(C(=O)Cc1ccccc1)[C@@H]1CC[C@]2(CCCO2)C[C@H]1N1CCCC1
inactive: activity change, negative = inhibition [1] 2.07% | activity change, negative = inhibition [2] 28.2% | activation [4] -1.17% | activation [5] -1.45% | activity, negative = inhibition [6] -0.743% | activity change, positive = activation [7] -10.8% | growth rescue, positive = activation [8] -11% | activation [9] 8.44% | activation [10] 0.743% | activity change, positive = activation [11] -1.14% | activity, positive = activation [12] 1.5% | activity change, negative = inhibition [13] 5.98% | activity change, negative = inhibition [14] 14.6% | activity change, negative = inhibition [15] 10.9%
active: Potency [3] 20 µM
